Data from US6440996B1, “Monomeric and dimeric heterocycles, and therapeutic uses thereof” (priority 1998, dated 2002).

Amino acid sequences for entries named in this document (tags omitted). Residues count along the entry.
UniProt Q9WTR4, 1-597: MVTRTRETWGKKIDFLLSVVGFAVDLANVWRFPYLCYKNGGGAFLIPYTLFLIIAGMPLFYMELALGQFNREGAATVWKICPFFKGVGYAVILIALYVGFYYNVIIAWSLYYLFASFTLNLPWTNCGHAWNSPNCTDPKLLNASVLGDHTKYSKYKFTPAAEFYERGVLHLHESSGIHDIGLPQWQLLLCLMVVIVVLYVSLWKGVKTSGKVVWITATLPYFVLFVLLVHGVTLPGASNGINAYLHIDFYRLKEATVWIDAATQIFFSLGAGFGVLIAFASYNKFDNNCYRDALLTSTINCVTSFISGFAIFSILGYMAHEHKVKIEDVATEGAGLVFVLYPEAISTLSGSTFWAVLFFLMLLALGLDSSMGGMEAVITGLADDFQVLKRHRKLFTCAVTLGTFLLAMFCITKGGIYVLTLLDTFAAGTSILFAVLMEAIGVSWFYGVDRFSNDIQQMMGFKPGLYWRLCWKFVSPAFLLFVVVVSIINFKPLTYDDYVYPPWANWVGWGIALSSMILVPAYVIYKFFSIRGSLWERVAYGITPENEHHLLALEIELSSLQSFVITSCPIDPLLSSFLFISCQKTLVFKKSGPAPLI

Molecular target: norepinephrine transporter (Rattus norvegicus, UniProt Q9WTR4)
Assay: Norepinephrine transporter binding (NET)
Description: Determination of inhibitory binding potencies of analogues at dopamine, serotonin, and norepinephrine transporters are carried out using standard receptor binding assays which are known in the art.
C. Norepinephrine Transporter Binding (NET)
J. Med Chem., 36, 2886-2890.

Compound: COC(=O)[C@H]1[C@@H](OC(=O)c2ccccc2)C[C@@H]2CC[C@H]1N2C [cocaine, reference compound]
- IC50: 4.43 µM
